The record followed here is patent US5904915A, “Method of diagnosing pathological state of tumor cells using a diagnostic agent for glycometabolic function” (Nihon Medi-Physics Co., Ltd., priority 1996, dated 1999).

Data set [1] concerns LS180 cells. Here is the method:
After carrying out an experiment according to Experiment 1, cells were stripped off from the plate using 100 μl of 50% ethanol and the solution was centrifuged at 15000 rpm. A 25 μl aliquot of supernatant was subjected to analysis of metabolites by thin-layer chromatography (TLC). The eluent was acetonitrile/water=95/5, and the carrier was silica gel 60. The plate after development was cut at 5 mm intervals and assayed for radioisotope with a gammer counter. Total radioactivity of respective metabolites were calculated from the ratio of metabolites obtained in TLC.

Data set [2] deals with LS180 cells. Here is the method:
Then, cells were washed three times with a cold PBS, lysed with 50% ethanol and the lysate was assayed for metabolites.
The source holds these as a separate data set.

On to `OC[C@H]1OC(O)[C@H]([18F])[C@@H](O)[C@@H]1O` (some centres unmarked) [FDG, 2-[F-18]fluorodeoxyglucose, reference compound], for which, in the data set on LS180 cells [1], the “rate of metabolism of FDG to FDG-6P” value was “slow”. Moreover, the “production of FDG-6P on doubling glucose concentration in medium” value in the data set on LS180 cells [2] is “decreased”.
